Earlier results in paper PMC10491737.

The chains behind the UniProt entries cited, without tags or fusion partners. Residues count along the entry.
UniProt P11142, whole entry, looked up: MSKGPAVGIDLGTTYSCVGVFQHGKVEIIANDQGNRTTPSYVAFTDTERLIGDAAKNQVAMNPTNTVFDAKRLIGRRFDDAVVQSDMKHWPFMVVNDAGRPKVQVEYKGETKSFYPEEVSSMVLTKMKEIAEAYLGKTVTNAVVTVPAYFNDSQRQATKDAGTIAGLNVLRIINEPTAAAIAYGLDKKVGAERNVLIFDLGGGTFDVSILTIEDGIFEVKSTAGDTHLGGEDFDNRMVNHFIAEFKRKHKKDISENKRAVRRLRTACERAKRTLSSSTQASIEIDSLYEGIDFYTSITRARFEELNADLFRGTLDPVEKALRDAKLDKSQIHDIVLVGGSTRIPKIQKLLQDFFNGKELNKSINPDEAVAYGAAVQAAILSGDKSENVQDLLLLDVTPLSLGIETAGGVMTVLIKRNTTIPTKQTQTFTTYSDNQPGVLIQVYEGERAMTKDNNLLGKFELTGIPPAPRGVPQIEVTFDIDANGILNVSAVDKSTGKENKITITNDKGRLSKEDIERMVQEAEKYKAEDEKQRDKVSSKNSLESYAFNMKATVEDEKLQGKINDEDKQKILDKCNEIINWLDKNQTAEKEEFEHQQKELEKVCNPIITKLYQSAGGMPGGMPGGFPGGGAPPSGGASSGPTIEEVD
UniProt Q9UNE7, 22-154: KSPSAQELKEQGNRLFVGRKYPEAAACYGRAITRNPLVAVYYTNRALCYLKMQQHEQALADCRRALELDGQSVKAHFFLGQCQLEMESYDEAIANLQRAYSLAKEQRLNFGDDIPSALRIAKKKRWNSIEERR

Molecular target: Hsc70 last 10 amino acids (Homo sapiens) (UniProt P11142)
Experiment: FP

Q: With CHIP TPR domain (from UniProt Q9UNE7) as the substance, how does the Kd read?
A: The Kd was 620 nM.
